The values that follow come from patent publication US20230038373A1, “STABILE CONJUGATE” (Glykos Biomedical OY, priority 2019, published 2023).

Experiment [1] relates to immature dendritic cells (iDCs) with SK-BR-3 cells. The experiment in a line: Dendritic cell activation assay (iDC / SK-BR-3 co-culture, fractalkine secretion). As to conditions: 5 nM test compound. The class given is cell-based, human. From the text: Monocytes were isolated from human peripheral blood (buffy coat) from healthy adult donors (Finnish Red Cross Blood Service) by using magnetic-activated microbead based cell sorting for CD14 positive cells (Miltenyi Biotec). Monocytes were differentiated to immature dendritic cells (iDCs) by using Mo-DC Differentiation Medium (Miltenyi Biotec) according the manufacturer's instructions. On day 6, to analyze cell surface expression of maturation markers, the iDCs were labeled with specific monoclonal antibodies for CD209 (R&D Systems) and CD14 (eBioscience). Nonspecific antibody binding was assessed using appropriate isotype controls. The iDCs were used for co-culture experiment on day 7.
SK-BR-3 cells (ATCC) were cultured in DMEM (Gibco) containing GlutaMAX and supplemented with 10% heat-inactivated fetal bovine serum (FBS, Gibco). SK-BR-3 cells were plated in 96-well plate (5000 c/well) in the presence or absence of […] kifunensine (Carbosynth Limited) and cultured for 5 days. Before start of the co-culture, SK-BR-3 cells were washed twice with RPMI 1640 medium (Gibco). Differentiated iDCs were collected and 0.11×10^6 cells/well were added together with the test compounds to SK-BR-3 cells and cells were incubated for 24 h at +37° C. in 5% CO2. The experiment medium was RPMI 1640 medium (Gibco) containing 10 mM Hepes and 2 mM glutamine and supplemented with 10% FBS (Gibco). […]

Experiment [2] has as its system mannosidase I. Nature of the experiment: N-glycan profiling of SK-BR-3 cells after inhibitor/ADC treatment (mannosidase I inhibition). As to conditions: 1 pM, 3 days. The class given is cell-based.

Consider “trastuzumab: human HER2-specific antibody (Herceptin, Roche)”, for which the Fractalkine in experiment [1] (SK-BR-3 + iDCs 24 h co-culture, without kifunensine pretreatment) turned out to be 50.64 pg/mL; in experiment [1] (iDCs without SK-BR-3 cells) it was 1.98 pg/mL. Further, the “N-glycan profile (FIG. 6A = profile of control cells, no treatment)” value in experiment [2] is “as shown in FIG. 6A”.
